Experimental data as given in patent US8003632B2, “Cholinesterase inhibitors for treating inflammation” (priority 2004, dated 2011).

Tested on: murine model of lethal endotoxemia
Type: in vivo, mice
Details: 14 days after endotoxin; 0.2 mg/kg i.p. 30 minutes before endotoxin; vehicle about 5%

With `CNC(=O)Oc1ccc2c(c1)[C@]1(C)CCN(C)[C@@H]1N2C` [Physostigmine] the mice survived was “about 80%”.
